Earlier results, collected in US20170354592A1 (ASCENDIA PHARMACEUTICALS, LLC, priority 2016, published 2017).

Conditions: cited from earlier work

(±)-[3-(9H-carbazol-4-yloxy)-2-hydroxypropyl][2-(2-ethoxyphenoxy)ethyl] amine [Carvedilol]
aqueous solubility: poor
